{"source": "patent US8158591B2", "about": "“Anticancer treatment with a combination of taxanes and 13-deoxyanthracyclines” (Gem Pharmaceuticals, LLC, priority 2006, dated 2012)", "system": "P388 murine leukemia", "test": "in vivo anticancer activity in murine leukemia model, CD2F1 mice injected with P388 cells", "details": "1 million P388 cells ip, drug ip on days 1-9, n = 10, listed as 5-imino-13-deoxydoxorubicin", "data": [{"smiles": "COc1cccc2c1C(=N)c1c(O)c3c(c(O)c1C2=O)C[C@@](O)(CCO)C[C@@H]3OC1CC(N)C(O)C(C)O1", "note": "(stereo partly shown) [Compound III]", "values": [{"measurement": "Median survival time", "result": "significant increase in median survival time"}]}]}
